Source: PubChem
Most compounds without a hit are left out; they make up all but 3.7% or so of the library.
ClpP mod = qHTS Assay for Activators of ClpP; 340,000 tested, 1.9% active; purified B. subtilis ClpP, FRET peptide cleavage, 20 min; AID 651965, 2013; Potency, µM (highest dose often 57.5 µM); ATP-dependent Clp protease proteolytic subunit (Bacillus subtilis (strain 168)), P80244; active = well fitted falling curve with a large enough effect; inconclusive = small, poorly fitted or top-dose-only effect; inactive = no such curve, though single readings can be large or run the other way; also: the source files actives as falling curves though it sought activators and does not explain the sign; nearly all actives have a fitted effect of over 65% in size
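ClpP 10 microg/mL final, pH 8 Tris/KCl buffer with BSA, glycerol, Tween-20; compound pinned in; FRET-FV substrate; RT 20 min; Ex320/Em430; ΔFRET vs ADEP 5.8 microM, DMSO, no enzyme.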
miR-21 reporter = miR-21 reporter, rising signal; HeLa miR-21 FLuc reporter, luciferase, 48 h; Potency, µM (highest dose often 38.3 µM); 340,000 tested, under 10 active; AID 2288; active = well fitted rising curve with a large enough effect; inconclusive = small, poorly fitted or top-dose-only effect; inactive = no such curve, though single readings can be large or run the other way;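 further: miR-21 action dims this reporter so a rising signal means less miR-21 action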
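HeLa cells stably expressing CMV-driven firefly luciferase with a downstream miR-21 binding sequence, endogenously expressing miR-21, were treated with titrations (up to about 40uM final) for 48 hours at 37 degree Celsius. Luciferase luminescence was read after lysis.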
Nrf2 activator = activates Nrf2 signaling | AREc32 ARE-luciferase reporter (MCF7-derived line), luminescence, 24 h | Potency, µM (doses to about 46.1 µM), actives largely listed as activators | 410,000 tested, 0.31% active | AID 624171; also: nearly all actives have a fitted effect of over 65% in size
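Nrf2 activation is followed as ARE-luciferase induction in the AREc32 line after one day of compound treatment; luminescence is read with Steady-Glo.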
A549 tox = A549 cytotoxicity, counter-screen for Nrf2 inhibitors. A549 ARE-Fluc cells, CellTiter-Fluor viability, 18-24 h. Potency, µM (series often up to 46 µM), most hits filed as inhibitors. 390,000 tested, 0.16% active. AID 504648
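A549 ARE-Fluc cells in 5% FBS OPTI-MEM, 5000 cells/well, rested 2 h then exposed to compounds in concentration-response for 18-24 h at 37 °C. Viability by CellTiter-Fluor fluorescence (Ex 405/Em 525) after 30 min; luciferase luminescence (BugLite, 15 min, RT) read afterwards.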
Nrf2 inh = blocks Nrf2 signaling | A549 ARE-Fluc reporter, luciferase luminescence, 18-24 h | 360,000 tested, 2.1% active | Potency, µM (doses to about 46 µM), actives largely listed as inhibitors; also: nearly all actives have a fitted effect of over 60% in size
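Two sequential reads on A549 ARE_Fluc cells exposed to compound for 18-24 h: a CellTiter-Fluor fluorescence read for viability, then a luciferase luminescence read for Nrf2/ARE activity.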
TCR activator = T cell receptor activation | primary human leukocytes, anti-CD3, IL-2 HTRF, 48 h | Potency, µM (series often up to 9.22 µM), hits mostly activators | 330,000 tested, under 10 active | AID 504894
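1) Mix primary human leukocytes, a-CD3 beads and compound. 2) Incubate 48 hr. 3) Add HTRF IL-2 reagents (a-IL-2-K, a-IL-2-d2).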
Each line names hits and unclear results; the compound was inactive in the other large screens. Unless noted, calls follow the shape of the dose curve; as a rule, active = well fitted curve in the direction sought with a large enough effect; inconclusive = small, poorly fitted or top-dose-only effect, or another doubt; inactive = no such curve, though single readings can be large; an effect the other way counts as inactive or inconclusive.

COc1ccc(NC(=O)CN(C)C(=O)Cc2ccc(S(=O)(=O)N3CCOCC3)s2)cc1	none (no result: miR-21 reporter)
CSC(C1CCCC1)n1nnc2ccccc21 (centres undefined)	none (no result: miR-21 reporter)
Cc1ccc(C(CC(=O)NCc2ccco2)c2ccc(OC(C)C)cc2)cc1 (centres undefined)	A549 tox inconclusive, Nrf2 inh 7.3µM
COc1ccc(C(CC(=O)NCc2ccco2)c2ccc(F)cc2)cc1 (centres undefined)	none
CCCOc1ccccc1-c1nc2c([nH]1)c(=O)[nH]c(=O)n2C	ClpP mod 32µM (no result: Nrf2 inh)
Cn1c(=O)[nH]c(=O)c2[nH]c(CO)nc21	none (no result: miR-21 reporter)
Cc1ccc2c(c1)NC(=O)C(CC(=O)Nc1ccccc1Cl)O2 (centres undefined)	Nrf2 inh inconclusive (no result: TCR activator)
COc1ccc(-c2nc(C(N)=O)c3[nH]c(=O)n(-c4cccc(Cl)c4)c3n2)cc1OC	A549 tox inconclusive, Nrf2 inh 26µM
Cc1cccc(-n2c(=O)[nH]c3c(C(N)=O)nc(C(C)C)nc32)c1	ClpP mod 22µM
Cc1ccc(-n2c(=O)[nH]c3c(C(N)=O)nc(C(C)C)nc32)cc1	none (no result: ClpP mod)
COc1cccc(-c2nc(C(N)=O)c3[nH]c(=O)n(-c4cccc(Cl)c4)c3n2)c1OC	none
CCOC(=O)C1CCCN(C(=O)c2nn(-c3ccc(OC)cc3)c(=O)c3c2c2ccccc2n3C)C1 (centres undefined)	none (no result: TCR activator)
Cc1cc(C(=O)COC(=O)c2ccc(O)cc2)c(C)n1CCc1ccc(F)cc1	none
Cc1cc(C(=O)CSc2nc(N)cc(N)n2)c(C)n1CCc1ccc(F)cc1	Nrf2 inh 15µM
NC(=O)c1ccccc1NC(=O)c1cccc(C(=O)Nc2ccccc2C(N)=O)n1	Nrf2 inh inconclusive (no result: ClpP mod, miR-21 reporter)
CCn1c(SCC(=O)c2c[nH]c3ccccc23)nc2cc(S(=O)(=O)N3CCOCC3)ccc21	ClpP mod 28µM
CCn1c(SCC(N)=O)nc2cc(S(=O)(=O)N3CCOCC3)ccc21	none (no result: ClpP mod)
CCOc1cc(/C=N/NC(=O)CSc2nncn2C)ccc1OC(=O)c1ccc(Cl)cc1	Nrf2 inh 21µM
CCOc1cc(/C=N/NC(=O)CSc2nncn2C)ccc1OCC(N)=O	none
CCOc1cc(/C=N\NC(=O)c2ccc(NC(=O)C(C)(C)C)cc2)ccc1OC(=O)c1ccc(C)cc1	Nrf2 inh 10µM
Brc1ccc2ncnc(Nc3ccc(N4CCOCC4)cc3)c2c1	Nrf2 inh 12µM
O=C(COc1ncnc2ccc(Br)cc12)Nc1ccc(N2CCOCC2)cc1	none
N#C/C(=C(\O)Cc1ccccc1)c1nc2ccccc2[nH]1	none (no result: Nrf2 inh)
N#C/C(=C(/O)c1ccco1)c1nc2ccccc2[nH]1	Nrf2 activator 6.3µM, Nrf2 inh inconclusive (no result: ClpP mod)
CCCN1C(=O)/C(=C/c2ccc(N3CCCC3)c(C)c2)NC1=S	Nrf2 inh 21µM
CCc1nnc(NC(=O)CSc2nccn2Cc2ccc(Cl)cc2)s1	none (no result: Nrf2 inh, TCR activator)
Nc1nonc1-c1nc2ccccc2n1Cc1c(Cl)cccc1Cl	none (no result: TCR activator)
CC(C)c1cc(-c2cc(C(=O)NCc3ccccc3)on2)nc(NCC2CC2)n1	ClpP mod 32µM
CC(C)c1cc(-c2cc(C(=O)NCc3ccccc3)on2)nc(NC2CCCC2)n1	ClpP mod inconclusive, Nrf2 inh inconclusive
COc1ccc2[nH]c(=O)c(CN(Cc3ccccc3)Cc3nnnn3CC3CCCO3)cc2c1 (centres undefined)	ClpP mod 28µM, Nrf2 inh inconclusive
COc1ccc2[nH]c(=O)c(CN(Cc3cccs3)Cc3nnnn3C(C)(C)C)cc2c1	ClpP mod 32µM
COc1ccc2[nH]c(=O)c(CN(Cc3cccnc3)Cc3nnnn3CC3CCCO3)cc2c1 (centres undefined)	none
COc1cc2cc(CN(Cc3nnnn3Cc3ccccc3)CC3CCCO3)c(=O)[nH]c2cc1OC (centres undefined)	ClpP mod 28µM
CC(Sc1nnc(Cc2cccs2)n1C1CC1)C(=O)NC1CCS(=O)(=O)C1 (centres undefined)	Nrf2 inh inconclusive (no result: miR-21 reporter)
CN(C)c1ccc(/C=C/c2cc[n+](C)c3ccc4ccccc4c23)cc1	none (no result: miR-21 reporter, Nrf2 activator, A549 tox, Nrf2 inh, TCR activator)
CCOC(=O)c1c(NC(=O)Cn2nnc(-c3ccc(Cl)cc3)n2)sc(C)c1C	ClpP mod 25µM
CCc1nc2ccc(C(=O)N3CCN(c4ccccc4)CC3)cn2c1N(C)CCC(C)C	none (no result: miR-21 reporter, A549 tox, Nrf2 inh, TCR activator)
CCCCCCCCC(=O)N/N=C(\C)c1ccc(O)cc1O	ClpP mod 32µM, A549 tox inconclusive, Nrf2 inh inconclusive
COc1ccccc1N(C(=O)c1snc(C(N)=O)c1N)C(C(=O)NCCC(C)C)c1ccco1 (centres undefined)	Nrf2 inh inconclusive (no result: TCR activator)
CCOc1ccccc1N(C(=O)c1snc(C(N)=O)c1N)C(C(=O)NCCC(C)C)c1ccco1 (centres undefined)	A549 tox inconclusive, Nrf2 inh 26µM
Cc1cccc(NS(=O)(=O)c2ccc(C(=O)NCC(c3ccco3)N3CCCCC3)cc2)c1C (centres undefined)	Nrf2 inh 21µM (no result: miR-21 reporter)
COc1ccc(Nc2nc(C)nc3sc4c(c23)CCC4)cc1O	Nrf2 activator 6.3µM (no result: ClpP mod)
Cc1nc(NCc2ccco2)c2c3c(sc2n1)CCC3	none (no result: Nrf2 inh)
Cc1cc(C)n2ncc(C(=O)Nc3ccccc3)c2n1	none (no result: ClpP mod, miR-21 reporter, Nrf2 activator, TCR activator)
COc1cccc(CC(NC(C)=O)C(=O)NC2CCN(c3nc(C)cc(C)c3C#N)CC2)c1OC (centres undefined)	ClpP mod 28µM
COc1cc(CC(NC(C)=O)C(=O)NC2CCN(c3nc(C)cc(C)c3C#N)CC2)cc(OC)c1 (centres undefined)	ClpP mod inconclusive
Cc1cc(S(=O)(=O)N2CCCC2)ccc1OCC(=O)N1CCCCC1	none (no result: ClpP mod)
Cc1ccc2nc(NC(=O)CSCC(=O)OCC(=O)c3ccc(Br)cc3)sc2c1	Nrf2 inh 18µM
CCCN(CCC)CCNC(=O)c1sc2nc3n(c(=O)c2c1C)CCCCC3	none (no result: TCR activator)
COc1ccc(/C=C/C(=O)Nc2sc3c(c2C(N)=O)CCC(C)C3)cc1OC (centres undefined)	none (no result: TCR activator)
O=C(CNC(=O)c1ccccc1)OC(Cc1ccccc1)C(=O)Nc1cc(C(F)(F)F)ccc1Cl (centres undefined)	none (no result: ClpP mod, miR-21 reporter, Nrf2 activator, TCR activator)
CCCCS(=O)(=O)CC(O)CSc1nc(-c2ccc(C)cc2)cc(-c2ccccc2)c1C#N (centres undefined)	ClpP mod 3.5µM, Nrf2 inh inconclusive (no result: TCR activator)
Cc1ccccc1NC(=O)c1c(NC(=O)c2ccccc2)sc2c1CCC2	none (no result: TCR activator)
